Laboratory results as given in patent US20060293384A1, “Isethionyl nitrates and compounds thereof” (published 2006).

Details: one drop on an anvil, struck with a hammer

isethionic nitrate
detonation on hammer strike: unable to obtain a detonation after many attempts
